Results as given in PubChem BioAssay AID743208 (The Scripps Research Institute Molecular Screening Center, 2013).
The list shows a part of the results, in another mix than the full data. Calls of active or inactive are those of the source.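 Rule for the calls: active = inhibition above about 20% chosen separately for each screening run (limit read from the data); inactive = the rest.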

Sequences of proteins named here, by UniProt entry; tags and fusion partners are left off. Residues count along the entry.
UniProt O14672, 214-748 limits assumed: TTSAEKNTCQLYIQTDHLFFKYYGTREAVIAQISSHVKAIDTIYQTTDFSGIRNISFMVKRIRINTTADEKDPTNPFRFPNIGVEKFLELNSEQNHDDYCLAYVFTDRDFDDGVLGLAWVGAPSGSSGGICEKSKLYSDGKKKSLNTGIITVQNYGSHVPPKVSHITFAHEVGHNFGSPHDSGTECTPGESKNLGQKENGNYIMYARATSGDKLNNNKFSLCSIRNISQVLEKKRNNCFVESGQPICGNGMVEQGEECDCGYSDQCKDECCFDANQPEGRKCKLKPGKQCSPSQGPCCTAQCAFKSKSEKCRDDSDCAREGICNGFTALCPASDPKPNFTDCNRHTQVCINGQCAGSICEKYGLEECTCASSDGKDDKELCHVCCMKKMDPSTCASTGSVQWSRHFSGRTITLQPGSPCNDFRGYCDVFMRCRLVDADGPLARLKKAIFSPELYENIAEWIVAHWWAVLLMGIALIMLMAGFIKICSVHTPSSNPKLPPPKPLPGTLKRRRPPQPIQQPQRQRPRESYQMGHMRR

Target: Disintegrin and metalloproteinase domain-containing protein 10 (Homo sapiens) (UniProt O14672)
Experiment: human ADAM10 inhibitors, confirmation, biochemical, QFRET, triplicate (AID 743208);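 note: 0% = DMSO wells and 100% = marimastat wells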
Conditions: ADAM10 QFRET peptide cleavage, EDANS fluorescence; at 6.95 µM; active compounds read high
Outline: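 Material: human ADAM10 protease with quenched EDANS/DABCYL DM2 peptide; Medium: 50 mM HEPES buffer with 0.01% Brij, pH 7.5; Probe or stimulus: DM2 peptide, 20 µM as 2X solution; Schedule: compound-enzyme preincubation 30 min, then 3 h substrate reaction, both 25 °C; Signal: fluorescence 359/460 nm; Repeats: triplicate.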

Question: `CCCCn1nnnc1C(c1cccc2ccccc12)N1CCC(n2c(=O)[nH]c3ccccc32)CC1` (stereo unspecified) was tested. Which inhibition did it give?
Answer: The inhibition was inactive: 9.25%.
